Patent US20150328310A1, “METHODS AND COMPOSITIONS RELATING TO TREATMENT OF CANCER” (THE PENN STATE RESEARCH FOUNDATION, priority 2012, published 2015)

Key:
SW480 = assay: Cell viability assay of ISC-4 combined with approved antitumor agents, SW480; assay type: cell-based, human; design: key: uncooperative (−); cooperative (+); synergistic (*); ambiguous (?); conditions: ISC-4 (1, 2, or 4 μM) plus therapy at putative EC12.5, EC25, EC50; compared to monoagent activity
RKO = assay: Cell viability assay of ISC-4 combined with approved antitumor agents, RKO; assay type: cell-based, human; design: key: uncooperative (−); cooperative (+); synergistic (*); ambiguous (?); conditions: ISC-4 (1, 2, or 4 μM) plus therapy at putative EC12.5, EC25, EC50; compared to monoagent activity
[1] = Serum chemistry profiles of mice; conditions: mouse, in vivo
[2] = tested on: SW480 and RKO colon cancer cell lines; conditions: estimated from the literature; dose used with ISC-4 in FIG. 2; cited from earlier work

Substance	Combinatorial effect of ISC-4 with the listed therapy, SW480 (SW480)	Combinatorial effect of ISC-4 with the listed therapy, RKO (RKO)	Cl [1] [mmol/L]	EC12.5 [2] [µg/mL]	EC25 [2] [µg/mL]	EC50 [2] [µg/mL]
Cetuximab	−	*	104 ± 5	0.25	0.5	
Trastuzumab	−	−		0.0625	0.125	0.25
